Measurements from ChEMBL document CHEMBL3232760, “Design and synthesis of silicon-containing steroid sulfatase inhibitors possessing pro-estrogen antagonistic character” (Bioorg Med Chem, 2014).

By UniProt entry, the sequences of proteins in these tests, tags left out.
UniProt P03372, whole entry: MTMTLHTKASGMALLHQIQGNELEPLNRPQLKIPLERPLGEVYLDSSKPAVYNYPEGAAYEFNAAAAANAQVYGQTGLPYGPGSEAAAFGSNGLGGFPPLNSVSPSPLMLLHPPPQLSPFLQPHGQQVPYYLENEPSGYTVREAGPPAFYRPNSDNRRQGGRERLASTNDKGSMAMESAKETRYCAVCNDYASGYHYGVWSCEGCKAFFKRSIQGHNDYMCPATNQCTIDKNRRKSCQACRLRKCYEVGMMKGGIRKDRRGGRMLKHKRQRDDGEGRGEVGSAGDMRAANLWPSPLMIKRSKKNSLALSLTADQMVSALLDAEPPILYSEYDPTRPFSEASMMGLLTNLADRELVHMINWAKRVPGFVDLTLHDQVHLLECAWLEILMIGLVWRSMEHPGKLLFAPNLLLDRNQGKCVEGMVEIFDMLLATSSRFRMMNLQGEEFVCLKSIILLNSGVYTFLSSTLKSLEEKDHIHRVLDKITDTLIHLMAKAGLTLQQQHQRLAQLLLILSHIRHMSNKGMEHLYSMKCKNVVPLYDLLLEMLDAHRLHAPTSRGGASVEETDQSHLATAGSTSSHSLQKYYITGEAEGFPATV
UniProt Q92731, whole entry: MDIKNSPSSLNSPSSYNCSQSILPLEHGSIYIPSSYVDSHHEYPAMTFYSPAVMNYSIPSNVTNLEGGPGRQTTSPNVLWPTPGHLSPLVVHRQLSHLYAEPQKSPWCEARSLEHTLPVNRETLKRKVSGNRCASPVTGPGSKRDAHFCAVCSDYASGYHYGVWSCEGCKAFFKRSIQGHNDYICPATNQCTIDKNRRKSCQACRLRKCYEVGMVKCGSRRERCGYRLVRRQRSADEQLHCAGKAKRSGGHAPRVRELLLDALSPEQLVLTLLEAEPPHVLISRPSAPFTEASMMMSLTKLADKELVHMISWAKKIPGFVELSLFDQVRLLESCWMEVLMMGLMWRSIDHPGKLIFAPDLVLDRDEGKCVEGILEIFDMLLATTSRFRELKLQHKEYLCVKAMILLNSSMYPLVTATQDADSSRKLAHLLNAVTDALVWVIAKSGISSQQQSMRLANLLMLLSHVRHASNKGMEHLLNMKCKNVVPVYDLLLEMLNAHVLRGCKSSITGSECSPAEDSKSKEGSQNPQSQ

Legend:
Format in all cases: cell-based
Estrogen receptor [1] = target: T1, Estrogen receptor (Homo sapiens, UniProt P03372); assay: Antagonist activity at human Gal4-fused ER-alpha expressed in HEK293 cells assessed as inhibition of 17beta-estradiol-induced effect at 3 uM by luciferase reporter gene assay
Summary of the method: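 Antagonist mode in transfected HEK293 GAL4-ER luciferase system, with cells co-treated with 0.3 nM 17beta-estradiol. Compound added 8 h post-transfection, 16–20 h treatment, luciferase normalized to beta-galactosidase, triplicate means.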

Estrogen receptor beta = Estrogen receptor beta (Homo sapiens, UniProt Q92731); assay: Agonist activity at human Gal4-fused ER-beta expressed in HEK293 cells at 10 uM by luciferase reporter gene assay relative to 17beta-estradiol
Summary of the method: (§1)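 Agonist mode: HEK293 cells in phenol-red-free DMEM with 5% FBS, 37 °C, 5% CO2, calcium phosphate cotransfected with GAL4-responsive MH100(UAS)x4-tk-LUC reporter, ER receptor fragment plasmid and beta-galactosidase plasmid. Compound added 8 h post-transfection, cells harvested 16–20 h later. Luciferase normalized to beta-galactosidase, triplicate means.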

Estrogen receptor [2] = target: T1, Estrogen receptor; assay: Agonist activity at human Gal4-fused ER-alpha expressed in HEK293 cells at 10 uM by luciferase reporter gene assay relative to 17beta-estradiol; summary of the method: as §1

| inhibition (Estrogen receptor [1]) | Activity (Estrogen receptor beta) | Activity (Estrogen receptor [2]) | SMILES |
| --- | --- | --- | --- |
| 55.3% |  |  | NS(=O)(=O)Oc1ccc(Cc2ccc(OS(N)(=O)=O)cc2)cc1 |
|  | 33.5% |  | C[Si](C)(c1ccc(O)cc1)c1ccc(O)cc1 |
| 37.5% |  | 100% | NS(=O)(=O)Oc1ccc(Sc2ccc(OS(N)(=O)=O)cc2)cc1 |
